# Measured affinities in a library of Ab-14 heavy chain variants

The target is the same throughout: PDVDLGDISGINAS, from the HR2 region of SARS-CoV-2 spike.

Ab-14 is the parent antibody, in scFv form: VH, then a 15-residue (Gly4Ser)3 linker, then VL. The light chain is unchanged in all variants.
VH: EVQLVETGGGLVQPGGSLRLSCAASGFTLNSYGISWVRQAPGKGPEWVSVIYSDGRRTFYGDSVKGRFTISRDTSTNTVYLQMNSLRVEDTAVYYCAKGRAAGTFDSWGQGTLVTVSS
VL: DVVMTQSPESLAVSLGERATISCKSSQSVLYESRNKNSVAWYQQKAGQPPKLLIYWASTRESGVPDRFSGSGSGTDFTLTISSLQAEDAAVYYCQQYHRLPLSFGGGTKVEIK

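The parent was found by panning a naive human phage display library on the peptide. These sequences belong to a second round, designed from the earlier measurements on random variants of the parent. Their group label is 14H_GP_Gen (GP: Gaussian process model; Gen: genetic algorithm; a sequence that several methods proposed may carry one label only). The scFvs were displayed on barcoded MATa yeast, the peptide on MATalpha yeast. Pairs that bind mate more often; barcode pairs of the diploids are counted by sequencing. Scores were corrected for input abundance and mapped to Kd with protein pairs of known affinity run in the same pool. Mating was done six times.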

Substitutions are numbered in sequence along the VH above, starting at 1 (not Kabat). Affinities are written as log10 Kd with Kd in nM; a lower number is a better binder. "ND" means that the variant was in the library but no mating with the target was seen in that replicate; the authors take this as a sign of poor binding, and no number exists. Of ten entries with the parent sequence, four were seen in most replicates (averages 0.34 to 2.37), three in one and three in none, so single entries are noisy.

changes,log10 Kd (nM) by replicate,empty controls
T28E S63D R100K A101T,0.12 / 0.32 / 0.16 / -0.12 / 0.04 / -0.05,0 of 18
T28Q S63N R100Q A101T,ND / 2.20 / ND / 0.87 / 0.95 / ND,1 of 18 (1.59)
T28E S31M G61A R100Q A101T,0.08 / -0.02 / 0.10 / -0.18 / -0.18 / -0.04,1 of 18 (2.98)
T28S G61I S63Q R100N,ND / ND / ND / ND / ND / ND,0 of 18
T28N G61V R100N A101T,ND / -0.11 / 0.38 / 0.23 / -0.28 / 0.38,0 of 18
T28S S31E G61S A101Q,-0.33 / -0.52 / -0.46 / -0.61 / -0.52 / -0.24,1 of 18 (2.14)
T28E S31N A101T S107T,0.25 / 0.12 / 0.58 / 0.15 / 0.11 / 0.83,1 of 18 (1.91)
T28N S63P A101Q,ND / ND / 1.51 / 2.11 / 1.50 / ND,1 of 18 (2.01)
T28S S31E R100K A101V,0.01 / 0.37 / -0.22 / -0.29 / 0.06 / 0.39,0 of 18
T28Q S31D G61V A101T,0.85 / ND / 1.96 / 0.52 / -0.47 / 0.78,0 of 18
T28E G61H A101Q,0.70 / 1.04 / 0.74 / 0.32 / 0.89 / 0.43,0 of 18
T28W S31E A101T S107T,1.19 / 1.01 / 0.23 / 0.88 / 0.35 / 1.18,1 of 18 (2.04)
T28E G61A S63H A101T,0.83 / 1.04 / 1.09 / 0.64 / 0.81 / 0.75,0 of 18
T28D S31M A101Q,0.77 / 1.29 / 0.60 / 0.96 / 0.75 / 0.98,0 of 18
T28D G61I A101E S107T,-0.23 / 0.19 / 0.10 / 0.22 / -0.44 / 0.32,0 of 18
G26K T28D G61S A101Q,0.96 / 1.19 / 1.61 / 1.22 / 0.25 / 1.17,0 of 18
T28W S31E G61H A101H,ND / ND / ND / ND / 1.59 / 1.45,0 of 18
T28E G61Q R100T,0.05 / 0.31 / 0.24 / 0.49 / 0.10 / 0.27,0 of 18
T28N S31E A101N,-0.20 / -0.26 / -0.30 / -0.15 / -0.64 / 0.08,0 of 18
T28D G61I R100N S107T,ND / 2.00 / 1.77 / ND / 2.31 / 2.19,0 of 18
T28E S31E G61D,0.01 / -0.39 / -0.22 / -0.55 / -0.35 / -0.22,0 of 18
T28S S31E G61V A101H,1.11 / 0.12 / 0.22 / 0.09 / 0.15 / 0.55,0 of 18
T28D S63R R100Q A101E,0.56 / 0.40 / 0.08 / 0.12 / 0.36 / 0.23,1 of 18 (3.26)
T28E G61H R100E,0.21 / 0.15 / 1.28 / 1.00 / 0.21 / 0.84,1 of 18 (1.63)
T28N A101Q S107N,1.17 / ND / 1.47 / ND / 1.27 / ND,0 of 18
T28D F59V A101Q,0.42 / -0.38 / 0.20 / -0.13 / -0.24 / -0.31,0 of 18
T28D R56K A101Q,0.26 / 0.49 / 0.34 / 0.17 / -0.22 / 0.42,0 of 18
T28D G61I A101N,0.12 / 0.71 / 0.35 / 0.43 / 0.51 / 0.50,0 of 18
T28N G61A S63E A101T,ND / 1.14 / 0.69 / 0.29 / 0.90 / 0.17,0 of 18
T28D S63A A101I,0.67 / 0.64 / 0.61 / 0.39 / 0.26 / 0.50,0 of 18
S31E R56M A101T S107T,0.22 / -0.07 / -0.21 / -0.06 / 0.15 / 0.31,0 of 18
T28S S63N A101Q,ND / ND / ND / ND / ND / ND,1 of 18 (2.10)
T28D G61K R100Q S107A,0.19 / -0.19 / 0.03 / 0.09 / -0.12 / 0.50,1 of 18 (2.67)
T28S S31E R100H S107R,0.39 / 0.11 / 0.17 / 0.15 / 0.26 / 0.02,0 of 18
T28E G61A R100V,1.15 / 1.13 / 0.61 / 0.00 / 0.86 / 0.99,0 of 18
T28D R56K G61I A101E,0.35 / -0.24 / -0.01 / -0.47 / -0.13 / 0.19,0 of 18
T28G S31E A101T S107K,0.27 / -0.08 / 0.39 / 0.20 / 0.13 / 0.37,0 of 18
T28E R100K A101T S107L,0.72 / 0.26 / -0.17 / 0.55 / 0.26 / 0.34,0 of 18
T28D F59A A101C,0.84 / 0.68 / 0.60 / 0.42 / 1.00 / 1.61,1 of 18 (1.38)
T28G G61K R100Q,1.76 / 1.41 / 1.55 / 1.66 / 2.90 / 1.63,1 of 18 (1.84)
T28E S31E R100W A101T,0.28 / 0.24 / 0.01 / -0.17 / 0.19 / 0.05,0 of 18
T28Q S31E G61V A101T,-1.01 / ND / 0.74 / 0.67 / 0.29 / 0.25,0 of 18
T28D G61S R100Q S107D,0.37 / 0.19 / 0.13 / 1.15 / 0.90 / 0.14,0 of 18
T28H G61K R100E,3.10 / 1.90 / ND / 2.50 / 1.62 / 2.44,0 of 18
T28D R100K A101T S107W,1.21 / ND / 0.53 / 1.12 / ND / 1.89,0 of 18
G26Q T28D G61I R100N,0.98 / 1.99 / 1.60 / 0.86 / 1.97 / 1.01,0 of 18

3 of these entries, quoted again:

| changes | log10 Kd (nM) by replicate | empty controls |
|---|---|---|
| T28E G61A S63H A101T | 0.83 / 1.04 / 1.09 / 0.64 / 0.81 / 0.75 | 0 of 18 |
| T28G S31E A101T S107K | 0.27 / -0.08 / 0.39 / 0.20 / 0.13 / 0.37 | 0 of 18 |
| T28E G61Q R100T | 0.05 / 0.31 / 0.24 / 0.49 / 0.10 / 0.27 | 0 of 18 |

Three control strains display no target. For all heavy chain designs, 1% of the pairings with them gave a signal, with a median of 2.08 and one signal in twenty below 0.84, so weak values seen in few replicates may be background. For each scFv, signals with the empty controls are counted beside the result, with their mean in brackets. A sequence measured in both rounds can read differently, since the two assays cover different ranges. The authors averaged sequences with at least three values out of six and counted those with two or fewer as poor binders.

The measurements come from Li et al. 2023 (doi:10.1038/s41467-023-39022-2) through the FLAb antibody collection.